# Measurements: patent US11446314B2, “Immunoablative therapies” (AVM Biotechnology LLC, priority 2018, dated 2022)
# Read-outs that look alike come from different tables or passages of the source.
# Tested on: peripheral blood cells
# Details: for absolute RBCs / absolute neutrophils / absolute platelet: mouse, in vivo
# [1] = mice, oral 12 mg/kg on day −2, 48 hours
# [2] = mice, oral 17-18 mg/kg on day −2, 48 hours
compound,measurement,setting,value
C[C@@H]1C[C@H]2[C@@H]3CCC4=CC(=O)C=C[C@]4(C)[C@@]3(F)[C@@H](O)C[C@]2(C)[C@@]1(O)C(=O)CO [dexamethasone],B lymphocytes,[1],111 relative counts
same,CD3+ lymphocytes,[1],92 relative counts
same,CD4+ lymphocytes,[1],37 relative counts
same,CD8+ lymphocytes,[1],33 relative counts
same,Tregs,[1],0.2 relative counts
same,absolute lymphocytes,[1],521 relative counts
same,B lymphocytes,[2],58 relative counts
same,CD3+ lymphocytes,[2],71 relative counts
same,CD4+ lymphocytes,[2],25 relative counts
same,CD8+ lymphocytes,[2],1.4 relative counts
same,Tregs,[2],0.5 relative counts
same,absolute lymphocytes,[2],88 relative counts
same,lymphodepletion profile compared to standard 2 day Cy with 4 day Flu,"mice, dexamethasone 12 or 17.5 mg/kg HED 12-72 hours before blood draw, combination with 12 mg/kg HED on day −2",comparable lymphodepletion profile
same,absolute RBCs,,10 relative counts
same,absolute neutrophils,,605 relative counts
same,absolute platelet,,373 relative counts
same,absolute RBCs,"po, 12 mg/kg",10 relative counts
same,absolute neutrophils,"po, 12 mg/kg",321 relative counts
same,absolute platelet,"po, 12 mg/kg",348 relative counts
